Source: patent publication EP1099690A1, “MONOCYCLIC $g(b)-LACTAM COMPOUNDS AND CHYMASE INHIBITORS CONTAINING THE SAME” (SHIONOGI & CO., LTD., priority 1998, dated 2000)

Sequences of proteins named here, by UniProt entry; tags and fusion partners are left off. Residues count along the entry.
UniProt P23946, 22-247 limits assumed: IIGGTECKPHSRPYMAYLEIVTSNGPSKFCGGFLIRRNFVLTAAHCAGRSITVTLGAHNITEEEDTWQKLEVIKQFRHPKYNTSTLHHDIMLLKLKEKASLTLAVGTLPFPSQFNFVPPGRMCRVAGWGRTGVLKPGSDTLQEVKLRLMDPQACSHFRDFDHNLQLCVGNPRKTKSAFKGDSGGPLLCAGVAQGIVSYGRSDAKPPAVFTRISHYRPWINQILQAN

Target: human chymase (Homo sapiens, UniProt P23946)
Test: Chymase inhibitory activity (Suc-Ala-Ala-Pro-Phe-pNA substrate, absorption 405 nm)
Conditions: purified human chymase, 30 minutes at 37 °C preincubation, substrate 0.5 mM

| SMILES | IC50 [nM] |
| --- | --- |
| CCCC(NC(=O)N1C(=O)[C@@H](Cc2ccccc2OC)[C@@H]1Oc1ccc(C(=O)O)cc1)c1ccc2c(c1)OCO2 (stereo partly drawn) | 2.25 |
| CC(NC(=O)N1C(=O)C(Cc2ccccc2)C1Oc1ccc(C=CC(=O)N2CCCC2C(N)=O)cc1)c1ccccc1 (stereo not drawn) | 3 |
| CCOc1ccccc1C[C@@H]1C(=O)N(C(=O)N[C@@H](c2ccccc2)C(C)CC)[C@H]1Oc1ccc(C(=O)O)cc1 (stereo partly drawn) | 10 |

Now those with a lower IC50, led by results:

| IC50 [nM] | SMILES |
| --- | --- |
| 0.26 | CCCC(NC(=O)N1C(=O)[C@@H](Cc2ccccc2OC)[C@@H]1Oc1ccc(C(=O)N2CCN(C)CC2)cc1)c1ccc2c(c1)OCO2 (stereo partly drawn) |
| 0.7 | CC(NC(=O)N1C(=O)C(Cc2ccccc2)C1Oc1ccc(C(=O)N2CCCC2C(N)=O)cc1)c1ccccc1 (stereo not drawn) |
| 2.1 | CCCC(NC(=O)N1C(=O)[C@@H](Cc2ccccc2OC)[C@@H]1Oc1ccc(C(=O)N2CCN(C3CCCCC3)CC2)cc1)c1ccc2c(c1)OCO2 (stereo partly drawn) |
